# Measured values: patent publication US20110319427A1, “USE OF 5AHQ AND BORTEZOMIB FOR THE TREATMENT OF HEMATOLOGICAL DISEASES” (priority 2009, published 2011)
# Read-outs that look alike come from different tables or passages of the source.
# How the values were obtained:
# [1] = tested on: THP1/WT
# [2] = tested on: THP1/BTZ50
# [3] = tested on: THP1/BTZ100
# [4] = tested on: THP1/BTZ200
# [5] = tested on: THP1/BTZ500
smiles,measurement,setting,value
"Nc1ccc(O)c2ncccc12 [5AHQ, 5-amino-8-hydroxyquinoline]",RF 5AHQ (Resistance Factor),[1],1
same,RF 5AHQ (Resistance Factor),[2]; THP1/BTZ50 (+),1.6
same,RF 5AHQ (Resistance Factor),[2]; THP1/BTZ50 (−),1.8
same,RF 5AHQ (Resistance Factor),[3]; THP1/BTZ100 (+),1.7
same,RF 5AHQ (Resistance Factor),[3]; THP1/BTZ100 (−),1.7
same,RF 5AHQ (Resistance Factor),[4]; THP1/BTZ200 (+),1.7
same,RF 5AHQ (Resistance Factor),[4]; THP1/BTZ200 (−),1.7
same,RF 5AHQ (Resistance Factor),[5]; THP1/BTZ500 (+),1.4
same,RF 5AHQ (Resistance Factor),[5]; THP1/BTZ500 (−),1.8
